Experimental findings from doi:10.64898/2025.12.24.696448v1 are described below.

The chains behind the UniProt entries cited, without tags or fusion partners.
UniProt O75874, whole entry: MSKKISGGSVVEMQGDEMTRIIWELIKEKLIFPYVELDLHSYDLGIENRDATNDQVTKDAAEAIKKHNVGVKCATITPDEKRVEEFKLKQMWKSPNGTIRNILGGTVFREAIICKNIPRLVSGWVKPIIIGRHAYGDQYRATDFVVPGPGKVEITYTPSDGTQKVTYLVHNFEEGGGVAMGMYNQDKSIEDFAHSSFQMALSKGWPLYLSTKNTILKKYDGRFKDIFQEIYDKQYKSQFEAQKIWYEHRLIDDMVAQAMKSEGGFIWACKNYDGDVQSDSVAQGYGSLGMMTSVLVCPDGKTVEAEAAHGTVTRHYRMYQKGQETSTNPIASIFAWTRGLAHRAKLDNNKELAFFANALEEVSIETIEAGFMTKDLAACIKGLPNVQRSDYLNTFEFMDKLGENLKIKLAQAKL

The assay addresses IDH1 (Homo sapiens, UniProt O75874). Briefly: SPR. The class given is binding. The note with it: 25 °C, pH 7.4, 2% DMSO; allosteric (cryptic Pocket 5).

pKd: −log10 of the molar value.

Broadly, the pKd is the negative decadic logarithm of the Kd, by convention in mol/L. `O=C1C2CCC(C(O)C2)N1Cc1ccccc1` (stereo not shown) showed a pKd of 4.20.
